Molecules are shown by their SMILES.

Sequences of proteins named here, by UniProt entry; tags and fusion partners are left off.
UniProt P41146, whole entry: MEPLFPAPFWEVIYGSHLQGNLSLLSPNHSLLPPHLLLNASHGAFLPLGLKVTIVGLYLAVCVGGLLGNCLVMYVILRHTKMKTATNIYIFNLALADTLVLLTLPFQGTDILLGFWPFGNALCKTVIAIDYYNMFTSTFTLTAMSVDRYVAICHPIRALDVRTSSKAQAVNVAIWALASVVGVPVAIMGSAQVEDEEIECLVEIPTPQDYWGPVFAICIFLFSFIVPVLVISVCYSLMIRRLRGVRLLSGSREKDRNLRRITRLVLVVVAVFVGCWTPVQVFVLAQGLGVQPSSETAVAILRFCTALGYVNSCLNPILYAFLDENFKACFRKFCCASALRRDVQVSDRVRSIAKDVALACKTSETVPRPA
UniProt P97266, whole entry: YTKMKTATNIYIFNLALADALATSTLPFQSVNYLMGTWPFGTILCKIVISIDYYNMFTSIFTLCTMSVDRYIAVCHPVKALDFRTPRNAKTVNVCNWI

For test [1], the target named is T1, Nociceptin receptor (Homo sapiens, UniProt P41146). Nature of the test: Displacement of [3H]-N/OFQ from human nociceptin opioid receptor transfected in CHO cells after 60 mins by beta-plate liquid scintillation counting analysis. In general terms: Loss of bound radioactivity is the signal in a displacement assay; it reports binding, not function.
Test [2] deals with T1, Nociceptin receptor. Nature of the test: Displacement of [3H]-N/OFQ from recombinant nociceptin opioid receptor (unknown origin) expressed in HEK cells. The following applies: hek293.
The target of the next test is Mu-type opioid receptor (Cavia porcellus, UniProt P97266). Nature of the test: Displacement of [3H]-DAMGO from mu opioid receptor in Hartley guinea pig brain membranes after 60 mins by beta-plate liquid scintillation counting analysis. The following applies: strain Hartley.

A word on the Ki: it is the dissociation constant of the complex between target and ligand, obtained from inhibition or displacement. In the case of `CC[C@@](O)(c1ccccc1)[C@H]1C[C@@]23C=C[C@]1(OC)[C@@H]1Oc4c(O)ccc5c4[C@@]12CCN(CC1CC1)[C@@H]3C5`, on Nociceptin receptor [1], the Ki came to 197 nM.

For the molecule `CO[C@]12CC[C@@]3(C[C@@H]1[C@@](C)(O)c1ccncc1)[C@H]1Cc4ccc(O)c5c4[C@@]3(CCN1CC1CC1)[C@H]2O5`, the Ki at Nociceptin receptor [2] stood at 4630 nM.

Take `CO[C@]12C=C[C@@]3(C[C@@H]1[C@@H](O)c1ccccc1)[C@H]1Cc4ccc(O)c5c4[C@@]3(CCN1CC1CC1)[C@H]2O5`: at Mu-type opioid receptor, the Ki came to 0.8 nM.

The values are drawn from ChEMBL document CHEMBL3259633, “Selectively promiscuous opioid ligands: discovery of high affinity/low efficacy opioid ligands with substantial nociceptin opioid peptide receptor affinity” (J Med Chem, 2014).
